# AlphaSeq binding of Ab-14 heavy chain variants to a spike HR2 peptide

Reference: Engelhart et al. 2022, doi:10.1038/s41597-022-01779-4. File: FLAb, binding data.

Antigen: PDVDLGDISGINAS, a 14-residue peptide of the SARS-CoV-2 spike HR2 region.

Parent: Ab-14, a human scFv built as VH, the linker GGGGSGGGGSGGGGS, VL. Only the CDRs of the heavy chain vary.
VH: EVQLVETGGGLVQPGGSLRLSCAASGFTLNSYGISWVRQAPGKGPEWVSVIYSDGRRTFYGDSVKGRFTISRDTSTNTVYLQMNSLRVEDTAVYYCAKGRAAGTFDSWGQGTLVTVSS
VL: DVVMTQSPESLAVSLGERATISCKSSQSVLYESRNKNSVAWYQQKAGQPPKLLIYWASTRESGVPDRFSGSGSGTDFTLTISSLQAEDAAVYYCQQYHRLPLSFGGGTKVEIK

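The starting antibody came from a phage panning campaign against this peptide. In library AAYL49, one, two or three CDR residues were substituted; doubles and triples were drawn at random. Affinity was read by AlphaSeq, a pooled yeast mating assay with surface-displayed partners. The frequency of each diploid, read from paired DNA barcodes, reflects how well the two displayed proteins bind. The ratio of observed to expected reads was calibrated, replicate by replicate, on BCL2-family standards whose Kd was known from biolayer interferometry. There are three technical replicates.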

Substitutions are numbered in sequence along the VH above, starting at 1 (not Kabat).
Numbers give log10(Kd / nM), so 0 is 1 nM and 3 is 1 µM. Smaller is tighter.
Where no diploid with the target was found in that replicate, the entry reads "nd": below detection, most likely a poor binder, though not proof of it.
In this assay the parent's reference entry averaged 0.65; its copy inside this library read 4.11 (one replicate of three).

| # | changes | log10 Kd (nM) by replicate | empty controls |
|---|---|---|---|
| 1 | I51Y+Y52H+R57N | nd / nd / nd | 3 of 9 (2.92) |
| 2 | T28L+G99T+A101P | nd / nd / nd | 0 of 9 |
| 3 | R57M+R100S | nd / nd / nd | 1 of 9 (4.63) |
| 4 | S31C+R57M+K65C | nd / 3.34 / nd | 0 of 9 |
| 5 | L29Q+R56E+S63K | nd / 4.46 / 4.01 | 1 of 9 (4.46) |
| 6 | T28A+I34N+F105P | nd / nd / nd | 2 of 9 (4.32) |
| 7 | F27T+I51M+S63Y | 4.05 / nd / 5.21 | 4 of 9 (4.41) |
| 8 | S31C+A102V | nd / nd / 3.38 | 0 of 9 |
| 9 | Y32K+G99E+D106P | nd / nd / nd | 0 of 9 |
| 10 | T58P+A102R+F105P | nd / nd / nd | 2 of 9 (3.08) |
| 11 | S31H+S35K+F59P | 3.99 / nd / nd | 1 of 9 (3.69) |
| 12 | I51D+Y60L+G103S | 5.23 / nd / nd | 2 of 9 (4.68) |
| 13 | N30W+S35Q+R56A | nd / nd / nd | 1 of 9 (5.35) |
| 14 | G99K+A101C+A102N | 4.73 / nd / 5.21 | 3 of 9 (4.25) |
| 15 | G33D+I34A+V50R | nd / nd / nd | 1 of 9 (4.36) |
| 16 | L29V+V64C+K65P | nd / nd / nd | 0 of 9 |
| 17 | R57W+T58E+K65C | nd / nd / nd | 5 of 9 (4.48) |
| 18 | K65H+R100I | 5.13 / 3.28 / 2.23 | 2 of 9 (3.50) |
| 19 | G26C+S31A+D106I | nd / nd / nd | 0 of 9 |
| 20 | G33Q+I34D+G99Q | nd / nd / nd | 0 of 9 |
| 21 | V50P+A102M+F105T | nd / nd / 4.22 | 2 of 9 (4.47) |
| 22 | S31I+Y32G+G33M | nd / nd / 5.58 | 1 of 9 (3.79) |
| 23 | I51F+R56M+F105S | nd / nd / nd | 0 of 9 |
| 24 | G26F+K65D+G103R | nd / nd / nd | 1 of 9 (3.40) |
| 25 | N30W+R57D+T104R | nd / nd / nd | 2 of 9 (3.69) |
| 26 | G26F+R56T+F105G | 3.90 / 2.65 / 3.33 | 0 of 9 |
| 27 | G33P+V50E+S53V | 3.26 / nd / nd | 2 of 9 (4.10) |
| 28 | I51D+G61K | nd / 5.19 / nd | 2 of 9 (3.50) |
| 29 | F27N+S31M+V64T | nd / 3.40 / nd | 3 of 9 (3.82) |
| 30 | S35V+F59G+A101R | nd / nd / nd | 0 of 9 |

Extract of 4 entries:

| changes | log10 Kd (nM) by replicate | empty controls |
|---|---|---|
| K65H+R100I | 5.13 / 3.28 / 2.23 | 2 of 9 (3.50) |
| N30W+R57D+T104R | nd / nd / nd | 2 of 9 (3.69) |
| I51Y+Y52H+R57N | nd / nd / nd | 3 of 9 (2.92) |
| Y32K+G99E+D106P | nd / nd / nd | 0 of 9 |

Empty control strains, which show no peptide, gave a signal in 15% of pairings with library AAYL49; the median was 4.06 and 95% of these signals were weaker than 2.83. No background was subtracted. For each scFv, signals with the empty controls are counted beside the result, with their mean in brackets.